# From patent publication US8063060B2, “R(−)-11-hydroxyaporphine derivatives and uses thereof” (The McLean Hospital Corporation, priority 2004, dated 2011)
# By UniProt entry, the sequences of proteins in these tests, tags left out. Residues count along the entry.
# UniProt P18901, whole entry: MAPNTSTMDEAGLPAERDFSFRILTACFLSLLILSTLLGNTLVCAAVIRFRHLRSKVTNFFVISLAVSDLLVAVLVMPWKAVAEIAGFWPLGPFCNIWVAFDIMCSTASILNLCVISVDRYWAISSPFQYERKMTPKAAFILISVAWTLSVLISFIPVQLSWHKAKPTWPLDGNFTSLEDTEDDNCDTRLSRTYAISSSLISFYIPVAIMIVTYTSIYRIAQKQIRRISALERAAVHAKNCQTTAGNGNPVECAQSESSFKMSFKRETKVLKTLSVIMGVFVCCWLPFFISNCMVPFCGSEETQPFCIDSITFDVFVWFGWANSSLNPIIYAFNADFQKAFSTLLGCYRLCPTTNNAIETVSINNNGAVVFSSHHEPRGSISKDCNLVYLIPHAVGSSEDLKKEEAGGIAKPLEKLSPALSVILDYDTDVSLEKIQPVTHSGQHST
# UniProt P61169, 1-415 isoform P61169-2: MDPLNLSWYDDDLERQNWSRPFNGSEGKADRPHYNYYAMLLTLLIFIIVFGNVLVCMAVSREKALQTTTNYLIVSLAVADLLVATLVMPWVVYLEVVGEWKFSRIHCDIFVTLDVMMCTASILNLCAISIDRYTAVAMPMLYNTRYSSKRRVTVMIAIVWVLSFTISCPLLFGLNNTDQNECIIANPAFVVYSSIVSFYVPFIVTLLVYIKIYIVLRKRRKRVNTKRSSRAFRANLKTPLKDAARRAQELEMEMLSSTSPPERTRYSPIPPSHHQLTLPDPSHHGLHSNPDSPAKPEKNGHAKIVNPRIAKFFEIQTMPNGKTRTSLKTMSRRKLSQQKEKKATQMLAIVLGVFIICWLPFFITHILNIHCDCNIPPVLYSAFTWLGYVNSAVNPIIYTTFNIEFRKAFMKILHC
# What was measured:
# dopamine D1 receptor = target: T1, dopamine D1 receptor (Rattus norvegicus, UniProt P18901); experiment: Radioligand competition assay, D1 receptor, rat corpus striatum membranes, [3H]SCH-23390; type: binding; conditions: rat striatal membranes, 0.3 nM [3H]SCH-23390, 30 minutes at 30° C; read-out: Affinity at rat dopamine receptors, D1
# T1 construct: membrane preparations from dopamine-rich corpus striatum (caudatoputamen) tissue from rat forebrain; from tissue; host or cells: corpus striatum (caudatoputamen) of adult male Sprague-Dawley rats
# dopamine D2 receptor = dopamine D2 receptor (Rattus norvegicus, UniProt P61169); experiment: Radioligand competition assay, D2 receptor, rat corpus striatum membranes, [3H]nemonapride; type: binding; conditions: rat striatal membranes, 90 minutes at 30° C, read-out: Affinity at rat dopamine receptors, D2
substance,measurement,setting,value
"R(−)-2-fluoro-apomorphine [Compound 20, reference compound]",Ki,dopamine D1 receptor,0.231 ± 0.011 µM
same,Ki,dopamine D2 receptor,0.0732 ± 0.0119 µM
